## Binding of CDR-mutated scFvs to a peptide of the spike HR2 region

From the AlphaSeq antibody data of Li et al. 2023 (doi:10.1038/s41467-023-39022-2), copy in the FLAb collection.

The target is the same throughout: PDVDLGDISGINAS, from the HR2 region of SARS-CoV-2 spike.

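Designed CDR sequences, proposed from the first random library and measured here. Group labels follow the data file (Ctrl: baseline library sampled from a position-specific scoring matrix, with some repeated check sequences; GP: Gaussian process model; GPLM: also part of the Gaussian process libraries; HC: hill climbing; Gen: genetic algorithm; a sequence that several methods proposed may carry one label only). AlphaSeq pools MATa yeast showing the antibodies with MATalpha yeast showing the peptide. Binding brings cells together so that they mate, and sequencing counts the barcode pairs among the diploids. The ratio of observed to expected reads was calibrated, replicate by replicate, on BCL2-family standards whose Kd was known from biolayer interferometry. Each pool was mated in six replicate cultures.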

Each scFv is VH, the linker GGGGSGGGGSGGGGS, VL, as in the parent Ab-14, and differs from it in the CDRs of the light chain only.
VH: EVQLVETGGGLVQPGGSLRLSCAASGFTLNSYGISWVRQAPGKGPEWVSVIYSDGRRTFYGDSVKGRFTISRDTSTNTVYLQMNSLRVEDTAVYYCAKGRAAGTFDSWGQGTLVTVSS
VL: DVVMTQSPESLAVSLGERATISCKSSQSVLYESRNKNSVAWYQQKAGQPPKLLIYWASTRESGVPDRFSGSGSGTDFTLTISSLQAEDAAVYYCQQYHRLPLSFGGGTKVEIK

The whole VL of each variant is written out.
Variants here have at most six changes.
Kd is apparent (estimated from mating counts) and averaged on the log scale over replicates with a signal. Smaller is tighter.
"nd" means that the variant was in the library but no mating with the target was seen in any replicate; the authors take this as a sign of poor binding, and no number exists.
Background: pairings of all light chain designs with three empty control strains gave a value in 4% of cases (median 430 nM, 5th percentile 38 nM). Values in that range, when seen in few replicates, are hard to tell from nonspecific mating. The control count says in how many pairings with the empty strains this scFv gave a signal.
Values of this round are not directly comparable with the first-round values of the same sequences.
In the paper, a design with two or fewer of six values counts as a poor binder.

Variant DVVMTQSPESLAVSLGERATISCKFSQSNLPESRNKNSVAWYQQKAGQPPKLLIYWASTRESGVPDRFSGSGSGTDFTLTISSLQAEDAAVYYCQQYFRLPLPFGGGTKVEIK [Ctrl] showed 150 nM (6 of 6 replicates; controls 1 of 18). Variant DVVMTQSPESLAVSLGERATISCKSSISYLYESRNKNSVAWYQQKAGQPPKLLIYNASTRESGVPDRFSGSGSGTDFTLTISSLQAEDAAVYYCQQYHRLPLSFGGGTKVEIK [GP_HC] showed 1.6 nM (6 of 6 replicates; controls 0 of 18). With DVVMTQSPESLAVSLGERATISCKVSQSELYESRNKNSVAWYQQKAGQPPKLLIYNASTRESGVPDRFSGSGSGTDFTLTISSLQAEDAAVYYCQQYHRLPLVFGGGTKVEIK [GP_Gen] the result was 900 pM (6 of 6 replicates; controls 1 of 18). Variant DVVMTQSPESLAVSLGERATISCKLSQSELYESRNKNSVAWYQQKAGQPPKLLIYNASYRMSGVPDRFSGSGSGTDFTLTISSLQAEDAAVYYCQQYHRLPLSFGGGTKVEIK [GP_Gen] gave 450 pM (6 of 6 replicates; controls 2 of 18). Variant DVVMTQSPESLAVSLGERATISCKSSQSVLRESRNKNSVAWYQQKAGQPPKLLIYWASTRESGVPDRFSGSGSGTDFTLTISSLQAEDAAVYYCQQYHRLPLSFGGGTKVEIK [Ctrl] gave 17 µM (1 of 6 replicates; controls 2 of 18). With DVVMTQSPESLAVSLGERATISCKSSQSVLYDSRNKNSVAWYQQKAGQPPKLLIYTASTRESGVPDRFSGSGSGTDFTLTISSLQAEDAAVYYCFQYHRLPLSFGGGTKVEIK [Ctrl] the result was 470 nM (1 of 6 replicates; controls 0 of 18). Variant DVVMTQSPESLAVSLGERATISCKLLQSVDYESRNKNSVAWYQQKAGQPPKLLIYHASTREDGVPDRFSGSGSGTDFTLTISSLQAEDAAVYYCQQYHRLPLSFGGGTKVEIK [GP_HC] showed 1.6 nM (6 of 6 replicates; controls 1 of 18). With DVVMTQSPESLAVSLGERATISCKLDQSQLYESRNKNSVAWYQQKAGQPPKLLIYNASQRESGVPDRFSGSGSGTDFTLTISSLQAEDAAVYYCQQYHRLPLSFGGGTKVEIK [GP_Gen] the result was 370 pM (6 of 6 replicates; controls 1 of 18).

For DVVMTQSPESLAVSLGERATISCKFSQSVLYESTTKNSVAWYQQKAGQPPKLLIYNASTRESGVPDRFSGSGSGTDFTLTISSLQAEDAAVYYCQQYHRLPLSFGGGTKVEIK [GPLM_HC], the assay gave 2.0 nM (6 of 6 replicates; controls 0 of 18). For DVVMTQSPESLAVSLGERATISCKMSQSVLYESHNKNSVAWYQQKAGQPPKLLIYSASTRESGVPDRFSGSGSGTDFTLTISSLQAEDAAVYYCQQYHRLPLSFGGGTKVEIK [Ctrl], the assay gave 1.1 nM (6 of 6 replicates; controls 0 of 18). Variant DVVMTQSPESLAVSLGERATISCKLSQSMLYESRNKNSVAWYQQKAGQPPKLLIYNASTRESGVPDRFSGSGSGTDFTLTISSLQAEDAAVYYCQQYHRLPLMFGGGTKVEIK [GP_Gen] gave 940 pM (6 of 6 replicates; controls 0 of 18). With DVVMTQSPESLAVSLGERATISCKSRQSVLYESRNKNDVAWYQQKAGQPPKLLIYSASTRESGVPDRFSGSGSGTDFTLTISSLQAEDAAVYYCQQYHQLYLGFGGGTKVEIK [Ctrl] the result was nd (0 of 6 replicates; controls 0 of 18). Variant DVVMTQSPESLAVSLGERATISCKISQSVLYEDRNKNSVAWYQQKAGQPPKLLIYNASTRCSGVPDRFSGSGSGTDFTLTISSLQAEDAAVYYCQQYHRLPLSFGGGTKVEIK [GP_Gen] showed 320 pM (6 of 6 replicates; controls 0 of 18). Variant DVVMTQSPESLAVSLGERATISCKSSQSVLYESRNKNSVAWYQQKAGQPPKLLIYQASTRESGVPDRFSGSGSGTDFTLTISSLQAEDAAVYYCQQYHRLPNSFGGGTKVEIK [Ctrl] gave 12 nM (1 of 6 replicates; controls 0 of 18).